Data published in patent US20240300972A1, “THIOPHENE-BASED LIPIDS” (Oregon State University, priority 2021, published 2024).

How the values were obtained:
[1] = system: HeLa, HEK293T/17, HepG2, Jurkat E6-1 cell lines
[2] = system: HeLa (human cervical epithelial cells)

Q: What does the source list for “6-(3-(dimethylamino)propanoyl)-2-((9Z,12Z)-octadeca-9,12-dienamido)-N-((9Z,12Z)-octadeca-9,12-dienoyl)-N-octadecyl-4,5,6,7-tetrahydrothieno[2,3-c]pyridine-3- [26a]”?
A: Cell viability [1]: > 60%; transfection profile and cytotoxicity [2]: favorable transfection profile and cytotoxicity
